Here are results for one compound from US20020039746A1, “Methods for identifying peripheral benzodiazepine receptor binding agents” (priority 2000, published 2002).

Amino acid sequences for entries named in this document (tags omitted).
UniProt P30536, whole entry: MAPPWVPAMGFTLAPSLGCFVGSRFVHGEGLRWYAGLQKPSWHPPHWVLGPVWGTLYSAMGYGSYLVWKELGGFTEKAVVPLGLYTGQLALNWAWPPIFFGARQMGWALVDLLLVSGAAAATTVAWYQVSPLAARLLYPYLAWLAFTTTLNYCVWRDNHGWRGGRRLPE

The structures appear in SMILES notation. “And” between values parts separate entries of the source, which are not always exact repeats. Equal entries are not always repeated.

Experiment [1] deals with T1, peripheral benzodiazepine receptor (PBR, PBzR) (Homo sapiens, UniProt P30536).
T1 construct: expressed in transfected cells; membranes
Nature of the experiment: [3H]PK-11195 saturation binding to cell membranes.

The target in another experiment is T2, PBzR (Homo sapiens, UniProt P30536).
T2 construct: expressed in transfected cells; host or cells: S11, clonal SH-SY5Y-derived stably transfected PBzR-overexpressing line
Kind of experiment: displacement of [3H]PK-11195 binding to the S11 PBzR overexpressing clone. The method, then:
Additional experiments were performed to further characterize the binding of ligand to PBzR.
The S11 cell line was used as a source of PBzR.

In the case of `CCC(C)N(C)C(=O)c1cc2ccccc2c(-c2ccccc2Cl)n1` (stereo not drawn) [PK-11195, 1-(2-chlorophenyl)-N-methyl-N-(1-methylpropyl)-3-isoquinolinecarboxamide], in experiment [1] (Jurkat Vector), the “Kd (nM)” value is “Not detected”. Moreover, the Kd in experiment [1] (Kd (nM), S11) is 5.3 nM; in experiment [1] (Kd, Jurkat cells stably expressing PBR (Jurkat PBzR)), ~3 nM and 4.6 nM; in experiment [1] (Kd, native SY5Y cells, tritiated PK-11195 saturation binding) it was 6.9 nM; in experiment [1] (Kd, stably PBR-transfected SY5Y cells) it was 3.8 nM. This compound registered an IC50 at PBzR of 5.36 nM.
